Literature values in patent US4883666A, “Controlled drug delivery system for treatment of neural disorders” (Massachusetts Institute of Technology, priority 1987, dated 1989).

Tested on: multiple sclerosis
Settings: administered directly into the spinal column; cited from earlier work

B1: beta interferon: beta interferon to reduce the frequency and severity of multiple sclerosis attacks (protein, UniProt P01574 22-187, looked up)
Interferon beta: MSYNLLGFLQRSSNFQCQKLLWQLNGRLEYCLKDRMNFDIPEEIKQLQQFQKEDAALTIYEMLQNIFAIFRQDSSSTGWNETIVENLLANVYHQINHLKTVLEEKLEKEDFTRGKLMSSLHLKRYYGRILHYLKAKEYSHCAWTIVRVEILRNFYFINRLTGYLRN
- frequency and severity of multiple sclerosis attacks: reduce the frequency and severity of multiple sclerosis attacks
